Most compounds without a hit are left out; they make up all but 16% or so of the library.
TDP1 block = inhibitors of human tyrosyl-DNA phosphodiesterase TDP1; Q9NUW8; recombinant TDP1, AlphaScreen DNA substrate cleavage; Potency, µM (top dose mostly 130 µM), without a hit: at the highest dose activity change, negative = inhibition, actives largely listed as inhibitors; 0.28% of 350,000 active; AID 485290; note: potency is the fitted concentration of half-maximal effect; % is set by controls: 0 for no effect and ±100 for the full control effect; nearly all actives have a fitted effect of over 40% in size
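Recombinant E. coli-expressed Tdp1 (1 nM) preincubated with compound 15 min at RT, then 5'-biotin/3'-phosphotyrosine-FITC DNA substrate (15 nM) added for 5 min. AlphaScreen beads (10 ug/ml) added, 10 min RT; tyrosine-FITC cleavage read as signal loss.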
TDP1 cell noCPT = qHTS for Inhibitors of human tyrosyl-DNA phosphodiesterase 1 (TDP1): qHTS in cells in absence of CPT; Potency, µM (doses to about 46.2 µM), without a hit: at the top dose activity change, negative = growth inhibition, most hits filed as inhibitors; 15% of 420,000 active; DT40 Tdp1-/- hTDP1 cells, no CPT, ATP luminescence, 48 h; note: potency is the fitted concentration of half-maximal effect; % is set by controls: 0 for no effect and ±100 for the full control effect; nearly all actives have a fitted effect of over 55% in size
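Chicken DT40 Tdp1-/- cells stably complemented with human TDP1 were seeded at 400 cells/well with DMSO in place of 20 nM camptothecin. After compound pinning, cells grew at least 48 hr at 37 °C; viability read by CellTiter-Glo luminescence.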
DT40 TDP1 CPT = DT40-hTDP1 cell growth loss with CPT; chicken DT40 Tdp1-/-;hTDP1 cells + 20 nM CPT, ATP luminescence, 48 h; Potency, µM (titrated, usually from 46.2 µM), inactives show top-dose activity change, negative = growth inhibition, usual class: inhibitors; 12% of 420,000 active; note: potency is the fitted concentration of half-maximal effect; % is set by controls: 0 for no effect and ±100 for the full control effect; nearly all actives have a fitted effect of over 55% in size
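Chicken DT40 Tdp1-/- cells complemented with human TDP1, 400 cells/well, exposed to compounds plus 20 nM camptothecin for at least 48 h at 37 C; viability read as ATP content by CellTiter-Glo luminescence.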
miR-21 reporter = miR-21 reporter, rising signal; HeLa miR-21 FLuc reporter, luciferase, 48 h; Potency, µM (titrated, usually from 38.3 µM), for the others: at the top dose reporter change, positive = more light; 340,000 tested, under 10 active; AID 2288; active = well fitted rising curve with a large enough effect; inconclusive = small, poorly fitted or top-dose-only effect; inactive = no such curve, though single readings can be large or run the other way;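 also: % of control where 0% means no effect; miR-21 action dims this reporter so a rising signal means less miR-21 action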
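HeLa cells stably expressing CMV-driven firefly luciferase with a downstream miR-21 binding sequence, endogenously expressing miR-21, were treated with titrations (up to about 40uM final) for 48 hours at 37 degree Celsius. Luciferase luminescence was read after lysis.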
uPA generation = cell surface uPA generation inhibition. cell surface uPA generation assay, qHTS. Potency, µM (titrated, usually from 38.3 µM), without a hit: at the top dose activity change, negative = inhibition, actives largely listed as inhibitors. 0.31% of 330,000 active; active = well fitted inhibition curve with a large enough effect; inconclusive = small, poorly fitted or top-dose-only effect; inactive = no such curve, though single readings can be large or run the other way; tested in mouse RAW 264.7 cells; note: potency is the fitted concentration of half-maximal effect; % is set by controls: 0 for no effect and ±100 for the full control effect; nearly all actives have a fitted effect of over 55% in size
* marks the source's active call; other numbers are inactive results; ? = inconclusive; / = not tested or not shown. Unless noted, calls come from the whole dose curve; as a rule, active = well fitted curve in the direction sought with a large enough effect; inconclusive = small, poorly fitted or top-dose-only effect, or another doubt; inactive = no such curve, though single readings can be large; an effect the other way counts as inactive or inconclusive.

SMILES	TDP1 block	TDP1 cell noCPT	DT40 TDP1 CPT	miR-21 reporter	uPA generation
O=C(Nc1ccc(OC(F)(F)F)cc1)C1CCCN(S(=O)(=O)c2cccnc2)C1 (stereo not given)	-4%	13µM*	18µM*	19%	-4%
CCc1ccc(NC(=O)C2CCCN(S(=O)(=O)c3cccnc3)C2)cc1 (stereo not given)	8%	?	?	19%	3%
c1ccc2sc(NC3=NCN(CC4CCCO4)CN3)nc2c1 (stereo not given)	-4%	8%	4%	-32%	-3%
Cc1ccc(Cn2ccc(NC(=O)c3cc(-c4ccco4)on3)n2)cc1	10%	-19%	-15%	-10%	1%
O=S(=O)(NCc1ccc2c(c1)OCO2)c1c(F)cc(F)cc1Br	4%	-25%	-24%	-3%	5%
COc1ccc(C(=O)NC[C@H]2O[C@@H](n3cnc4c(N)ncnc43)[C@H](O)[C@@H]2O)cc1OC	/	2%	-14%	/	/
COc1cc(/C=C/CNC[C@H]2O[C@@H](n3cnc4c(N)ncnc43)[C@H](O)[C@@H]2O)ccc1O	/	13µM*	-30%	/	/
N#CC1=C(N)Oc2c(oc(CO)cc2=O)C1c1ccsc1 (stereo not given)	0%	6%	1%	-1%	0%
N#CC1=C(N)Oc2c(ccc3ccccc23)C1c1ccsc1 (stereo not given)	9%	0.58µM*	0.82µM*	-12%	-12%
COc1ccc2nc3cc(Cl)ccc3c(Nc3cc(C(C)C)c(O)cc3C)c2c1	9%	?	23µM*	?	-12%
N#Cc1c(-c2ccccc2)cc(-c2ccccc2)nc1SCC(=O)NCC(=O)O	5%	4%	-3%	-7%	0%
Cc1sc2nc(C(C)Nc3ccccc3N3CCOCC3)[nH]c(=O)c2c1C (stereo not given)	4%	15µM*	?	15%	2%
Cc1sc2nc(CSCC(=O)Nc3ccc(N4CCOCC4)cc3)[nH]c(=O)c2c1C	-4%	?	?	8%	0%
Cc1cc(N2CCCCC2C)nc(-c2ccccc2O)n1 (stereo not given)	-4%	21µM*	23µM*	-7%	0%
Cc1cc(N2CCCCCC2)nc(-c2ccccc2O)n1	?	?	?	-4%	0%
COc1ccc(C(=O)CC(=O)C(=O)Nc2cccc(F)c2)cc1	/	15µM*	?	-15%	-6%
COc1ccc(C(=O)CC(=O)C(=O)Nc2ccc(C)c(Cl)c2)cc1	/	16µM*	?	-18%	0%
COc1ccc(C(=O)CNc2ccccc2CO)cc1	-2%	-3%	14%	-54%	-4%
CCOc1ccccc1NC(=O)C(=O)CC(=O)c1ccc(OC)cc1	/	21µM*	?	-6%	2%
COc1ccc(C(=O)CNc2ccccc2C#N)cc1	-5%	21µM*	?	-39%	1%
O=[N+]([O-])c1ccc(CCn2ccnc2)cc1	/	1%	-2%	-3%	-2%
CN1C(=O)CCC2(c3ccccc3)CC=C(O)C=C12 (stereo not given)	/	-10%	-3%	/	2%
CCNc1nc(NC(C)(C)C)nc(N(CC)n2cnnc2)n1	2%	-16%	-1%	0%	-9%
CN(C)c1nc(NC(C)(C)C)nc(NC(C)(C)C)n1	2%	21µM*	?	-2%	-8%
COc1ccc(CC2=CC(=O)c3ccccc3C2=O)cc1	/	2.1µM*	1.8µM*	?	?
COc1ccc(Cc2ccccc2C(=O)O)cc1	/	-14%	4%	/	-1%
COc1cccc(CNC(=O)c2oc3c(c2C)-c2nn(Cc4cccc(Cl)c4)cc2CC3)c1OC	5%	21µM*	16µM*	-2%	/
COc1cccc(CNC(=O)c2oc3c(c2C)-c2nn(Cc4cccc(Cl)c4)cc2CC3)c1	1%	18µM*	?	12%	/
CCOc1ccc(CNC(=O)Cn2cc3c(n2)-c2c(oc(C(=O)N4CCOCC4)c2C)CC3)cc1	3%	21µM*	?	24%	/
COc1ccc(CNC(=O)c2oc3c(c2C)-c2nn(Cc4ccc(Cl)cc4)cc2CC3)cc1	1%	23µM*	?	0%	/

Molecules listed so far with fluorine, in the order listed:
SMILES	TDP1 block	TDP1 cell noCPT	DT40 TDP1 CPT	miR-21 reporter	uPA generation
O=C(Nc1ccc(OC(F)(F)F)cc1)C1CCCN(S(=O)(=O)c2cccnc2)C1 (stereo not given)	-4%	13µM*	18µM*	19%	-4%
O=S(=O)(NCc1ccc2c(c1)OCO2)c1c(F)cc(F)cc1Br	4%	-25%	-24%	-3%	5%
COc1ccc(C(=O)CC(=O)C(=O)Nc2cccc(F)c2)cc1	/	15µM*	?	-15%	-6%

Returning to the listing, repeating the 2 entries before the break.
SMILES	TDP1 block	TDP1 cell noCPT	DT40 TDP1 CPT	miR-21 reporter	uPA generation
CCOc1ccc(CNC(=O)Cn2cc3c(n2)-c2c(oc(C(=O)N4CCOCC4)c2C)CC3)cc1	3%	21µM*	?	24%	/
COc1ccc(CNC(=O)c2oc3c(c2C)-c2nn(Cc4ccc(Cl)cc4)cc2CC3)cc1	1%	23µM*	?	0%	/
Cc1ccc(Cn2cc3c(n2)-c2c(oc(C(=O)Nc4ccc(F)cc4F)c2C)CC3)cc1	8%	?	?	-6%	/
O=C(CN1C(=O)/C(=C/c2ccccc2)SC1=S)NC1C=CS(=O)(=O)C1 (stereo not given)	0%	?	?	1%	-12%
O=C(Nc1ccc(Cc2ccncc2)cc1)c1cc(F)c(F)cc1Cl	-3%	-17%	-4%	-2%	-2%
O=C(Nc1ccc(NC(=O)C23CC4CC(CC(C4)C2)C3)cc1)c1cc(F)c(F)cc1Cl	3%	13µM*	?	-4%	2%
CC[C@H](C)Cc1cn([C@@H](CCCCNC(=O)OC(C)(C)C)C(=O)NCCCCCCCCCCC(=O)N2CCN(C(=O)OC(C)(C)C)CC2)nn1	0%	16µM*	?	/	16%
CSCC[C@@H](C(=O)NCCCCCCCCCCC(=O)N1CCN(C(=O)OC(C)(C)C)CC1)n1cc(CCO)nn1	/	15µM*	21µM*	/	-1%
Cc1cc(-c2ccco2)n(CC(=O)NCc2ccco2)n1	3%	-7%	-16%	-2%	-11%
O=C(N/N=C/c1cn(-c2ccccc2)nc1-c1ccccc1)c1ccco1	-6%	?	?	8%	/
N#Cc1ccc(N/N=C/c2cn(-c3ccccc3)nc2-c2ccccc2)c([N+](=O)[O-])c1	5%	8.2µM*	3.7µM*	1%	-2%
Cc1ccc(C(=O)Nc2cc([N+](=O)[O-])ccc2F)s1	0%	-3%	-3%	-15%	-2%
Cc1nn(-c2ccccc2)c2c1C(c1ccc(Br)s1)C(C#N)=C(N)O2 (stereo not given)	10%	12µM*	?	6%	-2%
Cc1nn(Cc2ccccc2)c2c1C(c1ccncc1)C(C#N)=C(N)O2 (stereo not given)	8%	23µM*	21µM*	0%	8%
Cc1nn(Cc2ccccc2)c2c1C(c1cccnc1)C(C#N)=C(N)O2 (stereo not given)	6%	?	?	11%	-3%
Cc1nn(Cc2ccccc2)c2c1C(c1ccc(Cl)cc1)C(C#N)=C(N)O2 (stereo not given)	8%	21µM*	18µM*	10%	-23%
CCC(CC)c1nnc(NC(=O)CCN2C(=O)c3ccccc3C2=O)s1	7%	2%	-6%	-4%	0%
COC(=O)[C@H](CC(C)C)NC(=O)NC1CCCc2ccccc21 (stereo not given in full)	-4%	-21%	7%	1%	9%

Assay outcomes deposited in PubChem BioAssay by National Center for Advancing Translational Sciences (NCATS).
